{
  "source": "patent EP4117701B1",
  "about": "“COMPOSITIONS FOR THE PREVENTION AND/OR TREATMENT OF BENIGN PROSTATIC HYPERTROPHY (BPH)” (IDI Integratori Dietetici Italiani S.r.l., priority 2020, dated 2021)",
  "system": "IL-1β",
  "details": "LNCaP, conditioned THP-1 medium; concentrations of Table 2",
  "data": [
    {"smiles": "O=C(O)Cc1ccccc1Nc1c(Cl)cccc1Cl", "note": "[Diclofenac]", "values": [
      {"measurement": "reduction of IL-1β release (in words)", "result": "maximum reduction"}
    ]}
  ]
}
